We go through one compound from patent US20210278391A1, “COMPOSITIONS AND METHODS FOR TREATING CARDIOVASCULAR AND METABOLIC CONDITIONS” (The Regents of the University of California, priority 2017, published 2021).

This series has as its system normal heart function. Particulars: sham-operated mice.

Take `O=C(O)c1sc2cc(Cl)ccc2c1Cl` [BT2, 3,6-dichlorobenzo[b]thiophene-2-carboxylic acid]: where the note is “BT2 6 weeks”, the mice body weight entry is “not affected”; the “toxicity on normal heart function and body weight” value is “no toxicity”. Moreover, under “BT2 6 weeks daily oral gavage vs vehicle”, the “EF and LVIDs” value was “no significant changes”.
